In ChEMBL document CHEMBL4004823, “Discovery of Potent and Selective Inhibitors for G9a-Like Protein (GLP) Lysine Methyltransferase” (J Med Chem, 2017):

Assay: Permeability in human Caco2 cells
Type: ADME, cell-based
Details: caco-2

CCCCCCNc1nc(NC2CCN(C)CC2)c2cc(OC)c(OC)cc2n1
permeability: 0.5 ×10⁻⁶ cm/s
